Assay results reported in US6462076B2.

Chains of the proteins cited; added tags and fusions are not shown. Residues count along the entry.
UniProt P43235, 115-329 limits assumed: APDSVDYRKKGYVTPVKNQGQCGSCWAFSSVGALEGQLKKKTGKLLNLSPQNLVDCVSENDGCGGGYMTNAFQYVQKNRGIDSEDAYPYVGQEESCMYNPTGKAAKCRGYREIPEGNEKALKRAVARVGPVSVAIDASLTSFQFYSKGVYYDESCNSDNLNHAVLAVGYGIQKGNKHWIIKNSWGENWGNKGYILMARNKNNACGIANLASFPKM
UniProt P07711, 114-333 limits assumed: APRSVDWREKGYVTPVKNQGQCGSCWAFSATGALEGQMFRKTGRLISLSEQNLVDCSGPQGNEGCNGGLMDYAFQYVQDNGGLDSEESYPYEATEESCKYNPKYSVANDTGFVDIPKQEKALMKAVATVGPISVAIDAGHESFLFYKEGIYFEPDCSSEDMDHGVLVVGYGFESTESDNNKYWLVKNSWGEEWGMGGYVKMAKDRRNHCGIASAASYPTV
UniProt P25774, 115-331 limits assumed: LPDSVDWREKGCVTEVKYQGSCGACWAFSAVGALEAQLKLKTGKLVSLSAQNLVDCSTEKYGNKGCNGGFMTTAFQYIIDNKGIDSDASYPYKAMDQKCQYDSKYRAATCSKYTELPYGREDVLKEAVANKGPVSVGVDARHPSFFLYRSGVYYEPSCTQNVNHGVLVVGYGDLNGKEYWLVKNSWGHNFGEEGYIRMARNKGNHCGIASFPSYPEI

Tests used:
[1] = biological target: human recombinant cathepsin K (Homo sapiens, UniProt P43235); assay: cathepsin K inhibitory activity, fluorogenic substrate Z-Leu-Arg-MCA; conditions: read-out: Cathepsin K IC50; enzyme 1 nM, substrate 5 μM, pH 5.5, room temperature
Description: (§1) The inhibitory activity of the compounds against cathepsin K, S, L and B was tested at room temperature in 96-wells opaque white polystyrene plates (Costar). The cathepsin K inhibitory activity was tested as follows:
5 μl of an inhibitor diluted in 5 mM sodium phosphate, NaCl 15 mM pH 7.4 containing 1% DMSO (final concentrations: 10-0.0001 μM) were preincubated for 10 min with 35 μl of human recombinant cathepsin K (final concentration: 1 nM) diluted in assay buffer (100 mM sodium acetate pH 5.5 containing 5 mM EDTA and 20 mM cysteine). After addition of 10 μl of the fluorogenic substrate Z-Leu-Arg-MCA diluted in assay buffer (final concentration: 5 μM), increase of fluorescence (excitation at 390 nm and emission at 460 nm) was measured for 7.5 min every 45 sec. The initial velocity (RFU/min) was derived from the linear fit of the 11 reading points.
(§2) The results are given as IC50 values which denote the concentration of the inhibitor at which the enzymatic activity is inhibited by 50%. The IC50 values are determined from a linear regression curve from a logit-log plot.

[2] = biological target: human liver cathepsin B (Homo sapiens, UniProt P07858); assay: cathepsin B inhibitory activity, same conditions as cathepsin K; conditions: read-out: Cathepsin B IC50; enzyme 1 nM, room temperature
Description: as §1
The cathepsin B inhibitory activity was assayed under the same conditions as the cathepsin K inhibitory activity using human liver cathepsin B (Calbiochem) at a final concentration of 1 nM.
as §2

[3] = biological target: human liver cathepsin L (Homo sapiens, UniProt P07711); assay: cathepsin L inhibitory activity, same conditions as cathepsin K; conditions: read-out: Cathepsin L IC50; enzyme 3 nM, room temperature
Description: as §1
The cathepsin L inhibitory activity was assayed under the same conditions as the cathepsin K inhibitory activity using, human liver cathepsin L (Calbiochem) at a final concentration of 3 nM.
as §2

[4] = biological target: Human recombinant cathepsin S (Homo sapiens, UniProt P25774); assay: cathepsin S inhibitory activity, fluorogenic substrate Z-Val-Val-Arg-MCA; conditions: read-out: Cathepsin S IC50; enzyme 0.5 nM, substrate 20 μM, pH 6.5, room temperature
Description: as §1
Cathepsin S inhibitory activity was assayed analogeously to the cathepsin K inhibitory activity, except that the buffer was 100 mM potassium phosphate, 5 mM EDTA, 5 mM DTT (freshly added), 0.01% Triton X-100, pH 6.5 and the fluorogenic substrate was Z-Val-Val-Arg-MCA (Bachem) (final concentration: 20 μM). Human recombinant cathepsin S (Maubach et al., Eur. J. Biochem. 1997, 250, 745-750) was used at a final concentration of 0.5 nM.
as §2

SMILES: N#CC(NC(=O)[C@@H]1CCCC[C@H]1NC(=O)OCc1ccccc1)c1ccc2c(c1)OCO2 (relative stereo)
- IC50 [1]: 0.027 µM
- IC50 [2]: 1.38 µM
- IC50 [3]: 4.69 µM
- IC50 [4]: > 10 µM

SMILES: Cc1cccc(C(C#N)NC(=O)[C@@H]2CCCC[C@@H]2NC(=O)OCc2ccccc2)c1 (relative stereo)
- IC50 [1]: 0.029 µM
- IC50 [2]: 0.64 µM
- IC50 [3]: 1.38 µM
- IC50 [4]: 2.61 µM

SMILES: COc1ccc(C(C#N)NC(=O)[C@@H]2CCCC[C@@H]2NC(=O)/C=C/c2ccccc2)cc1OC (relative stereo)
- IC50 [2]: 0.095 µM
- IC50 [3]: 1.2 µM

SMILES: COc1cccc(C(C#N)NC(=O)[C@@H]2CCCC[C@@H]2NC(=O)OCc2ccccc2)c1 (relative stereo)
- IC50 [1]: 0.016 µM
- IC50 [2]: 0.44 µM
- IC50 [3]: 0.58 µM
- IC50 [4]: 1.26 µM

SMILES: N#C[C@@H](NC(=O)[C@@H]1CCCC[C@H]1NC(=O)OCc1ccccc1)c1cccc(O)c1
- IC50 [1]: 0.005 µM
- IC50 [2]: 4.6 µM
- IC50 [3]: 4.7 µM
- IC50 [4]: > 10 µM
